Patent US9695132B2, “Heteroaryl compounds and uses thereof” (Celgene CAR LLC, priority 2013, dated 2017)

The chains behind the UniProt entries cited, without tags or fusion partners. Residues count along the entry.
UniProt P22455, 22-802: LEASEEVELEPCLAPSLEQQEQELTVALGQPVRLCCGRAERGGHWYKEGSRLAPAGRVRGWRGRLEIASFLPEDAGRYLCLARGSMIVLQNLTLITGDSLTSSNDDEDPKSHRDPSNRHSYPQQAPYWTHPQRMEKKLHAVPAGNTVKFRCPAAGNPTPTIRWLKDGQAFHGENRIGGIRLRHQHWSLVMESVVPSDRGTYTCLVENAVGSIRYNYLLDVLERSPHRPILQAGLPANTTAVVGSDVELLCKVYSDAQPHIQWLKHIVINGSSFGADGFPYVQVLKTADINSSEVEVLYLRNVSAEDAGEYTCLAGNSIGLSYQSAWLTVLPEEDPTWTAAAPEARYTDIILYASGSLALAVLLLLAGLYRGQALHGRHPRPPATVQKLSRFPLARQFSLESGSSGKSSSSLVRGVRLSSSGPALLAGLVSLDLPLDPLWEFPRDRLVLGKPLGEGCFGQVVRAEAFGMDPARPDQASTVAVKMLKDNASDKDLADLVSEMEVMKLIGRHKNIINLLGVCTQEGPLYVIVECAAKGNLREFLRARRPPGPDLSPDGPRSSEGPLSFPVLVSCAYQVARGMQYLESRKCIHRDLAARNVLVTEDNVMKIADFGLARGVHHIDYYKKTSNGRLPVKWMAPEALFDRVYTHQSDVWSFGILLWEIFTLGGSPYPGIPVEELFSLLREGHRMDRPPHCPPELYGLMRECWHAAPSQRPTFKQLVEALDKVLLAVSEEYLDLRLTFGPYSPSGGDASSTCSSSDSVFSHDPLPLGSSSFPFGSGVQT

Molecular target: FGFR4-WT (Homo sapiens (Human), UniProt P22455)
Experiment: Omnia assay for potency assessment against FGFR4 enzyme
Format: biochemical
Conditions: method a: [FGFR4-WT]=10 nM (Invitrogen), [ATP]=300 uM, [Y10-Sox]=10 uM
Protocol: A 10× stock solution of FGFR4-WT (PR4380C), (from Invitrogen, Carlsbad, Calif.) corresponding to method a in Table 7, was prepared as described below. Alternatively, a 10× stock solution of FGFR4-WT (F01-11G), (SignalChem, Richmond, BC) corresponding to method b in Table 7, was prepared as described below. A solution of 1.4×ATP (AS001A) and 5× Tyr-Sox conjugated peptide substrate (KNZ3101) were prepared in 1× kinase reaction buffer consisting of 20 mM Tris, pH 7.5, 5 mM MgCl2, 1 mM EGTA, 5 mM β-glycerophosphate, 5% glycerol (10× stock, KB002A) and 0.2 mM DTT (DS001A). […] The serially diluted compounds were prepared on a Tecan EVO100. A second addition of 10 μl of Tyr-Sox FGFR4 substrate was added to each well and the kinase reactions were started with the addition of 35 μL of 1.4×ATP. The reactions were monitored every 71 seconds for 240 minutes at λex360/λem485 in a Synergy plate reader from BioTek (Winooski, Vt.).

C=CC(=O)N[C@@H]1CCCC[C@@H]1Nc1ncc2c(n1)N(C)C(=O)N(c1c(Cl)c(OC)cc(OC)c1Cl)C2 [Compound I-94] showed an IC50 of over 1000 nM.
